Target: AR protein (Homo sapiens, UniProt P10275)
Assay: AR protein degradation in VCaP cells, Western blotting
Details: 24 hr

Amino acid sequences for entries named in this document (tags omitted). A change or cut given only in a name is not applied to a line headed by its entry.
UniProt P10275: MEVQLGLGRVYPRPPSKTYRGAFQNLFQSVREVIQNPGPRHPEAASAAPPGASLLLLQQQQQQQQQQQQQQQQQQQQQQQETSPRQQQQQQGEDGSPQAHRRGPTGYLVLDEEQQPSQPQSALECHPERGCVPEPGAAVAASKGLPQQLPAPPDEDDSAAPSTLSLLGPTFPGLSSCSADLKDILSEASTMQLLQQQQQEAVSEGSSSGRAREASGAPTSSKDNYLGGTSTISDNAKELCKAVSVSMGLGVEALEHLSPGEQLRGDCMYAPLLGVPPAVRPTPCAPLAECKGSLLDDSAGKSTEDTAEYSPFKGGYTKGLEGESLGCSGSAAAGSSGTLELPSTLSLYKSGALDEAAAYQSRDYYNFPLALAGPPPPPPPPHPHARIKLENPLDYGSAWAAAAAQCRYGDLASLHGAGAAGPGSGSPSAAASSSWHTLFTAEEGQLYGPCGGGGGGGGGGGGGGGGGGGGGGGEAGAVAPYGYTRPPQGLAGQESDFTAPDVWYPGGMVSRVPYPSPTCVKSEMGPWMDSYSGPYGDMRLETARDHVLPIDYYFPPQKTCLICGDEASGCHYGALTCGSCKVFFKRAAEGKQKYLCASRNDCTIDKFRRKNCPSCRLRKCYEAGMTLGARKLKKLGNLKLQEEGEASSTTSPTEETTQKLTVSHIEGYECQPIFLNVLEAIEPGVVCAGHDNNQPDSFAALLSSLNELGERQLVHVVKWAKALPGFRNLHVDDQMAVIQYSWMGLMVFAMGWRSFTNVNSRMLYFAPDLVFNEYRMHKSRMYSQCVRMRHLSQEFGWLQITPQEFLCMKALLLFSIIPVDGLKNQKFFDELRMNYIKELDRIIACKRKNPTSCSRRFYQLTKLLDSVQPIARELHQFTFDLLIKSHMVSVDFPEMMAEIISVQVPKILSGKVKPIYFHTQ

Substance	% AR protein degradation in VCaP Cells (0.01 μM)	% AR protein degradation in VCaP Cells (0.1 μM)	% AR protein degradation in VCaP Cells (1 μM)
2-chloro-4-((3S)-8-(4-(1'-(2-(2,6-dioxopiperidin-3-yl)-1,3-dioxoisoindolin-5-yl)-[3,3'-biazetidine]-1-carbonyl)phenyl)-3-methyl-2,8-diazaspiro[4.5]decan-2-yl)benzonitrile [Compound 42]	79%	>95%	>95%
2-chloro-4-(8-(4-(5-(1-(2-(2,6-dioxopiperidin-3-yl)-1,3-dioxoisoindolin-5-yl)piperidin-4-yl)-1,5-diazocane-1-carbonyl)phenyl)-2,8-diazaspiro[4.5]decan-2-yl)benzonitrile [Compound 23]	23%	80%	90%
2-chloro-4-(8-(4-(4-((1-(2-(2,6-dioxopiperidin-3-yl)-1,3-dioxoisoindolin-5-yl)piperidin-4-yl)methyl)piperazin-1-yl)benzoyl)-2,8-diazaspiro[4.5]decan-2-yl)benzonitrile [Compound 16]	minimal effect	minimal effect	minimal effect
2-chloro-4-(8-(4-(4-(4-(2-(2,6-dioxopiperidin-3-yl)-1,3-dioxoisoindolin-5-yl)piperazin-1-yl)piperidin-1-yl)benzoyl)-2,8-diazaspiro[4.5]decan-2-yl)benzonitrile [Compound 20]	37%	20%	>95%
2-chloro-4-((3S)-8-(4-(4-((1-(2-(2,6-dioxopiperidin-3-yl)-1,3-dioxoisoindolin-5-yl)piperidin-4-yl)methyl)piperazine-1-carbonyl)phenyl)-3-methyl-2,8-diazaspiro[4.5]decan-2-yl)benzonitrile [Compound 40]	81%	>95%	>95%
2-chloro-4-(8-(4-(7-(1-(2-(2,6-dioxopiperidin-3-yl)-1,3-dioxoisoindolin-5-yl)piperidin-4-yl)-3,7-diazabicyclo[3.3.1]nonane-3-carbonyl)phenyl)-2,8-diazaspiro[4.5]decan-2-yl)benzonitrile [Compound 22]	<5%	54%	54%
2-chloro-4-((3S)-8-(4-(4-(1-(2-(2,6-dioxopiperidin-3-yl)-1,3-dioxoisoindolin-5-yl)piperidin-4-yl)piperazine-1-carbonyl)phenyl)-3-methyl-2,8-diazaspiro[4.5]decan-2-yl)benzonitrile [Compound 41]	78%	>95%	>95%
